# Source: PubChem BioAssay (EPA / NIEHS)
# Several values for one entry are separate records, joined by “and”; a condition that tells them apart may be missing. Identical values can stand only once. The list shows a part of the results, in another mix than the full data. Inconclusive results are not listed. The source holds several records for some structures; these can differ, active in one and inactive in another. Activity calls are given as the source filed them. The calls were made as follows, unless noted: active = hit-call score of the fitted dose curve at least 0.9, where 1 is the maximum; inactive = score below 0.9.
# Legend:
# [1] = CCTE_Shafer_MEA_dev_mutual_information_norm: CCTE's Neural Network Formation Assay for Mutual Information Normalization, Shafer Lab (AID 2284091);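 as to AC50: mutual information between electrodes summarised as area under curve across four recording days; potency is for a decrease in mutual information relative to DMSO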
# In short: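 Shared information across electrodes, tracked on days 5, 7, 9 and 12 of network development and collapsed as trapezoidal area under the curve. Rat cortical cultures were treated continuously from plating, with treatment renewed at feeds on DIV 5 and 9; DMSO baseline, negative-direction fit.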
# [2] = CCTE_Shafer_MEA_dev_correlation_coefficient_mean: CCTE's Neural Network Formation Assay for Mean Correlation Coefficient, Shafer Lab (AID 2284093);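 as to AC50: well mean pairwise spike train correlation integrated as AUC over recording days 5 to 12; potency fitted for loss of correlation relative to DMSO vehicle wells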
# In short: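 Rat cortical cultures, 1.5 x 10^5 cells/well, dosed from day 0 for 12 days. Spontaneous spikes recorded DIV 5/7/9/12; electrode-pair correlation coefficients averaged, AUC taken. Fit in loss direction vs DMSO.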
# [3] = UKN2_HCS_IMR90_neural_migration: University of Konstanz (UKN) Leist Lab Neural Crest Cell Migration Assay in human induced IMR90 Pluripotent Stem Cells (UKN2) (AID 2284204); conditions: actives raise or lower the signal
# In short: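 High-content imaging of calcein-AM and Hoechst stained cells quantifies migration into a stopper-defined gap after 24 h compound exposure. Neural crest cells from IMR90 iPSC migrated 24 h in EGF/FGF N2-S medium before dosing; DMSO baseline.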
# [4] = IUF_NPC1a_proliferation_area_72hr: Leibniz Research Institute for Environmental Medicine (IUF) 72-hour Neural Progenitor Cell Proliferation Area Assay (NPC1a) (AID 2284208)
# In short: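 Measured in 3D suspension: each well held one primary hNPC sphere grown with EGF and FGF at pH 7.2-7.6. Compound stayed on for 72 h, then area was imaged; spheres lacking growth factors defined reduced proliferation.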
# [5] = IUF_NPC1_viability_72hr: Viability Assessment at 72 hours in the Leibniz Research Institute for Environmental Medicine (IUF) Neural Progenitor Cell Proliferation Assay (NPC1) (AID 2284209)
# In short: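 Alamar blue fluorescence (RFU) after 72 h exposure, normalized to DMSO baseline. hNPC spheres from GW 16-19 fetal cortex, single sphere per well in growth-factor medium; no compound renewal.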
# [6] = CCTE_Mundy_HCI_Cortical_Synap_Neur_Matur_NeuriteSpotCountPerNeuriteLength: CCTE's Synaptogenesis and Neurite Maturation Assay in rat cortical cells for Neurite Spot Count per Neurite Length, Mundy Lab (AID 2284210)
# In short: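 Synaptophysin spots per unit neurite length, measured by automated imaging of MAP2/synaptophysin/Hoechst-stained neurons. Cultures from rat cortex received chemical at DIV 7 with media change through DIV 12; glial growth arrested by AraC at DIV 5; DMSO baseline.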
# [7] = CCTE_Mundy_HCI_Cortical_NOG_NeuriteCount: CCTE's Neurite Outgrowth Assay in rat cortical cells for Neurite Count, Mundy Lab (AID 2284212);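 also: cells fixed about two days after chemical exposure began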
# In short: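 Rat cortical primary cells; compound added 2 h post-plating, 1/10 dilution of working solution. Anti-betaIII-tubulin/AF488 ICC; ArrayScan neurite count vs DMSO.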
# [8] = IUF_NPC1b_proliferation_BrdU_72hr: Leibniz Research Institute for Environmental Medicine (IUF) 72-hour Neural Progenitor Cell Bromodeoxyuridine (BrdU) Proliferation Assay (NPC1b) (AID 2284207)
# Procedure: IUF_NPC1 is a cell-based, multiplexed assay that uses hNPC, a human primary neural progenitor cells, with measurements taken at 72 hours after chemical dosing in a 96-well plate. Human neural progenitor cells (hNPC) are generated from human fetal brain cortex at gestational week (GW) 16-19. Grown in suspension culture and under proliferative conditions (proliferation media and growth factors), these cells represent neural progenitor cell proliferation. In the NPC1 assay, hNPC's are exposed to the test compound for 72h. Cell proliferation is assessed as an increase in sphere area using automated phase contrast imaging and as incorporation of Bromodeoxyuridine (BrdU) during DNA synthesis using a luminescence-based cell proliferation ELISA. In parallel, the cell viability is assessed using an alamar blue viability assay and the cytotoxicity using a lactate dehydrogenase dependent membrane integrity assay.IUF_NPC1b_proliferation_BrdU_72hr is one of 4 assay components measured from the IUF_NPC1 assay. […]
# [9] = CCTE_Mundy_HCI_Cortical_Synap_Neur_Matur_BPCount: CCTE's Synaptogenesis and Neurite Maturation Assay in rat cortical cells for Branch Point Count, Mundy Lab (AID 2284211)
# Procedure: CCTE_Mundy_HCI_Cortical_Synap&Neurite_Matur is a multiplexed, cell-based-readout assay that uses rat primary cortical cells with measurements taken at 288.33 hours after chemical dosing in a microplate: 96-well plate.CCTE_Mundy_HCI_Cortical_Synap_Neur_Matur_BPCount is one of eight components of the CCTE_Mundy_HCI_Cortical_Synap&Neurite_Matur assay. It measures synaptogenesis and neurite maturation related to number of branch points using High Content Imaging of fluorescently labelled markers.[…] Using a type of morphology reporter, loss -of-signal activity can be used to understand developmental effects.
# Cells are plated onto 96 well plates and allowed 2 hr for attachment to the substrate. At days in vitro (DIV) 5, Cytosine Arabinoside (AraC) is added to arrest glial cell growth. Chemicals are dosed and a media change is performed at DIV 7 of differentiation and is continued through DIV 12 when the experiment is terminated. Cells are fixed with […] and Hoechst Dye. Cells are stained using Millipore Mouse anti-MAP2MAB3418 (1:800) and Millipore Rabbit anti-Synaptophysinsc-1750 (1:250) primary antibodies and Alexa Fluor-488 goat anti-mouse and AlexaFluor-546 goat anti-rabbit secondary antibodies to label neuronal cell nuclei, synapses and neurites. A Cellomics ArrayScan VTi HCS Reader is used for automated image acquisition and analysis of neurite outgrowth.
# [10] = CCTE_Shafer_MEA_acute_LDH: CCTE's Lactate Dehydrogenase Assay for Cytotoxicity in the Neural Acute Assay, Shafer Lab (AID 2284086; active = hit-call score of the fitted dose curve at least 0.9, where 1 is the maximum;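 also: active means LDH release rises above DMSO vehicle level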)
# In short: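 LDH absorbance at 490 nm in medium taken right after 40-min compound exposure; rat primary cortical neuron networks on MEA plates, days post-plating 13 or 15. Increase over DMSO baseline scored as cytotoxicity.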
compound,measurement,setting,value
CC(C)OP(=S)(OC(C)C)SCCNS(=O)(=O)c1ccccc1,AC50,[1],active: 35.9 µM and active: 12.1 µM
same,AC50,[2],active: 78.9 µM and active: 12.5 µM
same,AC50,[3],active: 135 µM
same,outcome,[4],inactive
same,outcome,[5],inactive
same,AC50,[6],active: 52 µM
same,outcome,[6],inactive
same,AC50,[7],active: 92.6 µM and active: 74.4 µM
CC(C)OP(=O)(OC(C)C)SCCNS(=O)(=O)c1ccccc1,outcome,[1],inactive
same,outcome,[2],inactive
same,outcome,[3],inactive
same,outcome,[8],inactive
same,outcome,[4],inactive
same,outcome,[5],inactive
same,outcome,[6],inactive
same,outcome,[9],inactive
same,outcome,[7],inactive
O=C1C2CC=CCC2C(=O)N1SC(Cl)(Cl)C(Cl)Cl (stereo unspecified),outcome,[10],inactive
CN(C(=O)Cc1cccc2occc12)[C@H]1CC[C@@]2(CCCO2)C[C@@H]1N1CCCC1,outcome,[10],inactive
same,outcome,[1],inactive
same,outcome,[2],inactive
